The entries are a selection whose mix differs from that of the whole data set. Some structures have more than one record in an assay (separate samples or runs), and their calls can disagree. Calls of active or inactive are those of the source. Cut-off read from the data, not from the text of the source: active = growth inhibition above about 70%; inactive = the rest.
Test: NCI Yeast Anticancer Drug Screen. Data for the rad50EPP+ strain (AID 151);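 note: 0% = growth of vehicle-treated control cultures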
Settings: S. cerevisiae rad50 mutant strain, stronger effect = higher value
Protocol: Growth inhibition of yeast strains with defined genetic alterations is measured as a screen for potential anti-cancer activity. Selected strains with alterations in DNA damage repair or cell cycle control were exposed to compounds and growth inhibition was measured relative to vehicle treated controls. The strain used in this assay is rad50EPP+

Measured: growth inhibition

N#Cc1cc([N+](=O)[O-])cc([N+](=O)[O-])c1N
inactive: at 1.2 µM 14% | at 3.7 µM 18% | at 11.0 µM 18% | at 33.0 µM 32% | at 100.0 µM 48%

CC(C)c1nc(Nc2ccccc2)n(P(=O)(N(C)C)N(C)C)n1
inactive: at 1.2 µM -13% | at 3.7 µM 16% | at 11.0 µM -34% | at 33.0 µM -36% | at 100.0 µM -24%

NC(Cc1cnc[nH]1)C(=O)O (stereo not given)
inactive: at 1.2 µM 0% | at 3.7 µM 9% | at 11.0 µM 53%
active: at 33.0 µM 96% | at 100.0 µM 97%

CN(C)P(=O)(N(C)C)n1c(Nc2ccccc2)nnc1-c1ccccc1
inactive: at 1.2 µM -30% | at 3.7 µM -16% | at 11.0 µM -21% | at 33.0 µM -4% | at 100.0 µM -13%

COc1cccc(C[N+](C)(CCCl)CCCl)c1[N+](=O)[O-]
active: at 33.0 µM 94% | at 100.0 µM 97%
inactive: at 1.2 µM 29% | at 3.7 µM 42% | at 11.0 µM 68%

O=C1OC(C(Cl)(Cl)Cl)Sc2ccccc21 (stereo not given)
inactive: at 1.2 µM 1% | at 3.7 µM 6% | at 11.0 µM 13% | at 33.0 µM 46% | at 100.0 µM 59%

FC1(F)SC2C(C1(F)F)C1(Cl)C(Cl)=C(Cl)C2(Cl)C1(Cl)Cl (stereo not given)
active: at 3.7 µM 89% | at 11.0 µM 99% | at 33.0 µM 99% | at 100.0 µM 98%
inactive: at 1.2 µM 39%

O=[N+]([O-])c1cc([N+](=O)[O-])c2nsnc2c1
active: at 11.0 µM 99% | at 33.0 µM 99% | at 100.0 µM 99%
inactive: at 1.2 µM 31% | at 3.7 µM 68%

From PubChem BioAssay (NCI)
